From US10265275B2, “Phenolic coatings and methods of making and using same” (Northwestern University, priority 2013, dated 2019)

Experiment: Potentiometric titration, first pKa
Type: physicochemical
Conditions: 100 mM KCl, degassed, KOH titration
Method: In order to investigate the relationship between coating pH and deprotonation, coating precursor molecules were studied via potentiometric titrations. A solution of tannic acid was made by dissolving ˜1 mg in 2 mL of 100 mM KCl in a glass test tube to perform the titration. The TA and KOH solutions were degassed by aggressively sparging argon for no less than 30 min. Base was titrated in 1.0 μL increments, and the total amount added was 250 μL. If oxygen is purged correctly, the phenolic solution should display little or no change in color throughout the titration. The first pKa was calculated by initially plotting the volume of base added versus pH. The first derivative of this curve was then plotted as a function of pH, and the pKa was calculated by determining the pH associated with any local maxima.
Following a similar procedure, the first pKa values for PG, catechol, catechin, HHQ, and EGCG were determined via potentiometric titration (Table 7).

For (+)-catechin, the “First pKa” value was 9.2.
